The NIST ThermoML archive (doi:10.1016/j.fluid.2018.06.013)
± gives the expanded uncertainty stated by the source.

Assay: activity coefficient (dimensionless); of the first substance listed, at infinite dilution; xn = mol fraction of the nth substance listed
Settings: 100 kPa, Liquid, Chromatography, x1 = 0

activity coefficient (313.15 K): 40.2 ± 4.2
activity coefficient (323.15 K): 38.8 ± 4.1
activity coefficient (343.15 K): 36.2 ± 3.8
activity coefficient (363.15 K): 33.9 ± 3.6
activity coefficient (373.15 K): 32.9 ± 3.5
Structure (SMILES): CCCCOCCCC [dibutyl ether] + CCCC[N+]1(C)CCCC1.N#CN=C=[N-]
